The record followed here is US4952591A, “Anti-ulcer urea derivatives” (Kyorin Pharmaceutical Co., Ltd., priority 1987, dated 1990).

Protein sequences, listed by entry. Tags and fused reporters are not part of them.
UniProt P47747, whole entry: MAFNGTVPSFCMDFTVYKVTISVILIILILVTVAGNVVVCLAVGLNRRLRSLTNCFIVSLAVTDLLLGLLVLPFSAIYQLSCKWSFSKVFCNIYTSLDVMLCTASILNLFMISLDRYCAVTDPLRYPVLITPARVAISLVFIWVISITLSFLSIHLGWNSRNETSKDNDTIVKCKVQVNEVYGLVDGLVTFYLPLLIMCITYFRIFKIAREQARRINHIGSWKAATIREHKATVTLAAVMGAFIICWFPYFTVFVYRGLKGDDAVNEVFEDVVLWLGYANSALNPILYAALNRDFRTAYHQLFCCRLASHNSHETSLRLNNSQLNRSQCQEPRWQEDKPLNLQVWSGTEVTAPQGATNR

The assay concerns the target T1, Histamine H2-receptor (Cavia porcellus, UniProt P47747).
T1 construct: The right atrium was dissected and suspended at 0.5 g tension in a 10 ml organ bath; from tissue; host or cells: isolated right atrium of male Hartley guinea-pigs
Description: Histamine H2-receptor antagonism (isolated right atrium, positive chronotropic effect of histamine). Further details: species or system Male Hartley guinea-pigs. As to conditions: guinea-pig right atrium, 32±1° C., drugs added 5 minutes before histamine. The protocol:
Male Hartley guinea-pigs, weighing between 300 and 400 g, were used in the experiment. The right atrium was dissected and suspended at 0.5 g tension in a 10 ml organ bath containing Krebs-Henseleit's solution, kept at 32±1° C. and bubbled with the gas mixture (95 % O2 and 5 % CO2). Contractions were recorded with a force-displacement transducer through a strain gange. Cumulative concentration-response curves for the positive chronotropic effect of histamine on atrium were displaced to the right in parallel by drugs, and the effects of test drugs were calculated as the pA2 values. Drugs were added into the organ bath 5 minutes before histamine treatment.

As usually defined, the pA2 is a measure of antagonist potency on a negative log scale.

For `CN/C(=N/CCSCc1nc[nH]c1C)NC#N` [Cimetidine, reference compound], the pA2 is on record as 6.58.
